From US10456359B2, “Synergistic beverage composition” (Harsha Chigurupati, priority 2015, dated 2019) come the findings set out here.

Holding throughout (type): in vivo, Wistar albino rats
For assay [1], the system named is serum C-reactive protein (CRP). The experiment in a line: CNS/immunology study, serum CRP, alcohol 5 days. Conditions: Pro: Protection (%), rats, alcohol 5 Day. The text has this:
(§1) For hangover, 1 day immunology parameter were considered and for CNS, 5 days immunology parameter were considered.

In assay [2] the test system is Monocyte chemoattractant protein-1 (MCP-1) from brain homogenate. In words: Hangover study, MCP-1 from brain homogenate, alcohol 1 day. Conditions: 1 Day alcohol.
The test system of the next assay is interleukin-12 (IL-12). The experiment in a line: CNS/immunology study, serum IL-12, alcohol 5 days. Conditions: Pro: Protection (%), rats, alcohol 5 Day.
From the text: as §1

The subject of assay [3] is serum C-reactive protein (CRP). The experiment in a line: Hangover study, serum CRP, alcohol 1 day. Particulars: 1 Day alcohol.
From the text: as §1

The next assay deals with Interferon gamma (IFN-γ). The experiment in a line: CNS/immunology study, serum IFN-gamma, alcohol 5 days. Particulars: Pro: Protection (%), rats, alcohol 5 Day.
From the text: Distilled ethanol was obtained from Bengal Chemicals, West Bengal, India. Biochemical kits like AST, ALT, ALP and total protein were obtained from Span Diagnostics Ltd. Surat, India. Rat IL-12 ELISA kit (Elabscience Biotechnology Co. Ltd, WuHan, P.R.C.), Rat CRP ELISA kit (BD Biosciences, USA), Rat IFN-gamma ELISA kit (Biolegend, San Diego, Calif.) Rat MCP-1 ELISA kit (Elabscience Biotechnology Co. Ltd, WuHan, P.R.C.). All the chemicals used in the present study were of analytical grade and obtained from the following companies: Sigma (St. Louis, Mo., USA), Merck (Mumbai, India), S D fine chemicals (Mumbai, India) and Qualigen (Mumbai, India).
as §1

In assay [4] the test system is interleukin-12 (IL-12) from brain homogenate. In words: CNS study, IL-12 from brain homogenate, alcohol 5 days. Particulars: Pro: Protection (%), rats, alcohol 5 Day.
Assay [5] relates to Monocyte chemoattractant protein-1 (MCP-1). In words: CNS/immunology study, serum MCP-1, alcohol 5 days. Particulars: Pro: Protection (%), rats, alcohol 5 Day. How it is done: (§2) The lowest detectable limit of the kit is 0.1 ng/ml (Wang L, Li Y, Chen J, et al. “Ischemic Cerebral Tissue and MCP-1 Enhance Rat Bone Marrow Stromal Cell Migration in Interface Culture.” Experimental Hematology, 30, 7, 2002, 831-836).
as §1

Assay [6] has the same test system. The experiment in a line: Hangover study, serum MCP-1, alcohol 1 day. More on the design: concentration or dose not given beside the values. Particulars: 1 Day alcohol. How it is done: as §2, §1

As for `OC[C@@H](O)[C@@H](O)[C@H](O)[C@H](O)CO` [0.5 Man, D-Mannitol], the “CRP Pro” value in assay [1] worked out at 5.46%. Besides, in assay [2], the “Brain MCP-1 Pro (Protection)” value worked out at 3.49%. The “IL12 Pro” value in the assay on interleukin-12 (IL-12) was 5.08%. Besides, in assay [3], the “CRP Pro (Protection)” value turned out to be 5.48%. In the assay on Interferon gamma (IFN-γ), the “IFN-Gamma Pro” value is 1.58%. Moreover, the “Brain IL12 Pro” value in assay [4] was found to be 4.92%. For the same molecule, the “MCP-1 Pro” value in assay [5] came out at 5.29%.

On to `OC[C@@H](O)[C@@H](O)[C@H](O)[C@H](O)CO` [2.5 Man, D-Mannitol], for which the “CRP Pro” value in assay [1] was 21.8%. Also, the “IL12 Pro” value in the assay on interleukin-12 (IL-12) came out at 31.99%. Further, the “MCP-1 Pro (Protection)” value in assay [6] is reported as 22.75%. Also, the “IFN-Gamma Pro” value with Interferon gamma (IFN-γ) amounted to 15.06%. Besides, the “MCP-1 Pro” value in assay [5] is on record as 34.88%.

Take `OC[C@@H](O)[C@@H](O)[C@H](O)[C@H](O)CO` [1.2 Man, D-Mannitol]: the “CRP Pro” value in assay [1] is recorded as 15.92%. In the assay with interleukin-12 (IL-12), the “IL12 Pro” value is 17.92%. The “IFN-Gamma Pro” value in the assay with Interferon gamma (IFN-γ) came out at 6.54%. In assay [5], the “MCP-1 Pro” value is reported as 7.56%.
